Values of other authors, collected in article PMC7541340.

Target: C5AR1 N-terminus (Homo sapiens) (UniProt P21730)

For CHIPS (from UniProt Q2FFF7), the Kd is given as 1.1 nM.
